Test results published in patent publication US9249087B2, “HDAC inhibitors and therapeutic methods using the same” (THE BOARD OF TRUSTEES OF THE UNIVERSITY OF ILLINOIS, priority 2011, dated 2016).

Protein sequences, listed by entry. Tags and fused reporters are not part of them. Lines headed by an entry give the natural chain unless they say otherwise; changes in a name come on top.
UniProt Q9UBN7: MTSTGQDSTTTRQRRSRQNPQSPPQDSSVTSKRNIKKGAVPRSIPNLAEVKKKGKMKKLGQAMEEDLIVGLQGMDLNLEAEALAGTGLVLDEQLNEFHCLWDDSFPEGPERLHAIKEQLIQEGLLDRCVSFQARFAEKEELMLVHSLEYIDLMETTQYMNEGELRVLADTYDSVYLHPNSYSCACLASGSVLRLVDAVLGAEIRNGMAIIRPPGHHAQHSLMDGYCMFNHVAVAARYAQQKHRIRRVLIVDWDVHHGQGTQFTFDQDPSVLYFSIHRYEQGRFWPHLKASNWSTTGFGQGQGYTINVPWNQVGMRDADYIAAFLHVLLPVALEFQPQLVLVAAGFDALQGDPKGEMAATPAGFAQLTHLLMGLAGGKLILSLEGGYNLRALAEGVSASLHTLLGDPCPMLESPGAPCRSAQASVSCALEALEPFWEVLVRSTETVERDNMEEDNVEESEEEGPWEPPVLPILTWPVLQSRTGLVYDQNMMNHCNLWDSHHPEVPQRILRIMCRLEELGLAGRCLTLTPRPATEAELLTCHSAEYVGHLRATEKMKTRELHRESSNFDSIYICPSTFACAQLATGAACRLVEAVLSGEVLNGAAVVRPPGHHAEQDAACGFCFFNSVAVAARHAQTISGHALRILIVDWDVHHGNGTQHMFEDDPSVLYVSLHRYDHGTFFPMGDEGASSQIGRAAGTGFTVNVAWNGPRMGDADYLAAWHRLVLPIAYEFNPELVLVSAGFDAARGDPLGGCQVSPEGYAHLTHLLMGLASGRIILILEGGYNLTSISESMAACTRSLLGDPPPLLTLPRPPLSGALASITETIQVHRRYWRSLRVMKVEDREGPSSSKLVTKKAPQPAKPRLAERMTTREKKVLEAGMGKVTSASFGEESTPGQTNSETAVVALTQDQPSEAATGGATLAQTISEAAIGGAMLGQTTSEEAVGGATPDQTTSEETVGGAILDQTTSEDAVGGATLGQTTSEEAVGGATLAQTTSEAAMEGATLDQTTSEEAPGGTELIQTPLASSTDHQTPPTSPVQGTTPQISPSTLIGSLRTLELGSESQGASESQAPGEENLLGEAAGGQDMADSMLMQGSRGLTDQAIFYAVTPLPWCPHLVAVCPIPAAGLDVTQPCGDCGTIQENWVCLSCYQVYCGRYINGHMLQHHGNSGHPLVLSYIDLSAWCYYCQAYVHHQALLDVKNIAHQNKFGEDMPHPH

Assays:
Human HDAC6 [1] = target: T1, Human HDAC6 (Homo sapiens (Human), UniProt Q9UBN7); conditions: original assay lacking detergent (Triton X100); cited from earlier work
Human HDAC6 [2] = target: T1, Human HDAC6; assay: HDAC6 fluorogenic peptide deacetylation inhibition assay; assay type: biochemical

IC50 (Human HDAC6 [2]): 2.4 nM
Substance: ISOX [reference compound]
HDAC6 IC50 previously found (Human HDAC6 [1]): low picomolar
